Laboratory results from patent publication US11155546B2, “4,6,7-trisubstituted 1,2-dihydropyrrolo[3,4-c]pyridin/pyrimidin-3-one derivatives and uses thereof” (SHANGHAI HAIYAN PHARMACEUTICAL TECHNOLOGY CO., LTD., priority 2017, dated 2021).

Protein sequences, listed by entry. Tags and fused reporters are not part of them. Residues count along the entry.
UniProt Q06187, whole entry: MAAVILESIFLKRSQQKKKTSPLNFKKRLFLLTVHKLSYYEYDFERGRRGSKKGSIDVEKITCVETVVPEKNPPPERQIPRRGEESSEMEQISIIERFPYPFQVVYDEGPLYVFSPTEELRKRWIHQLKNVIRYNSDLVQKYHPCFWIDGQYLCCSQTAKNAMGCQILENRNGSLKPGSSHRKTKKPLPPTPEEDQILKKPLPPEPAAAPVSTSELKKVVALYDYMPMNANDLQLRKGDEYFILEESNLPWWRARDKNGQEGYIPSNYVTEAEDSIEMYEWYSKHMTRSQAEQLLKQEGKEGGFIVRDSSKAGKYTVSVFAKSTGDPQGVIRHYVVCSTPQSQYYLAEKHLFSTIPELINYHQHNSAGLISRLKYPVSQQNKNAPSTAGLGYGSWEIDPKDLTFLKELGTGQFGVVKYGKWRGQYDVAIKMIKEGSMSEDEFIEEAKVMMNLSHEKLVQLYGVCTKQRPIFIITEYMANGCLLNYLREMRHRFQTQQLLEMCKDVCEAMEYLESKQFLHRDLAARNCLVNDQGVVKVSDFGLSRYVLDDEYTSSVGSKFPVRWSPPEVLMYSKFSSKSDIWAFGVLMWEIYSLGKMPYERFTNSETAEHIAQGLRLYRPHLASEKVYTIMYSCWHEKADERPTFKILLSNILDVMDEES
UniProt P00533, 25-1210 limits assumed: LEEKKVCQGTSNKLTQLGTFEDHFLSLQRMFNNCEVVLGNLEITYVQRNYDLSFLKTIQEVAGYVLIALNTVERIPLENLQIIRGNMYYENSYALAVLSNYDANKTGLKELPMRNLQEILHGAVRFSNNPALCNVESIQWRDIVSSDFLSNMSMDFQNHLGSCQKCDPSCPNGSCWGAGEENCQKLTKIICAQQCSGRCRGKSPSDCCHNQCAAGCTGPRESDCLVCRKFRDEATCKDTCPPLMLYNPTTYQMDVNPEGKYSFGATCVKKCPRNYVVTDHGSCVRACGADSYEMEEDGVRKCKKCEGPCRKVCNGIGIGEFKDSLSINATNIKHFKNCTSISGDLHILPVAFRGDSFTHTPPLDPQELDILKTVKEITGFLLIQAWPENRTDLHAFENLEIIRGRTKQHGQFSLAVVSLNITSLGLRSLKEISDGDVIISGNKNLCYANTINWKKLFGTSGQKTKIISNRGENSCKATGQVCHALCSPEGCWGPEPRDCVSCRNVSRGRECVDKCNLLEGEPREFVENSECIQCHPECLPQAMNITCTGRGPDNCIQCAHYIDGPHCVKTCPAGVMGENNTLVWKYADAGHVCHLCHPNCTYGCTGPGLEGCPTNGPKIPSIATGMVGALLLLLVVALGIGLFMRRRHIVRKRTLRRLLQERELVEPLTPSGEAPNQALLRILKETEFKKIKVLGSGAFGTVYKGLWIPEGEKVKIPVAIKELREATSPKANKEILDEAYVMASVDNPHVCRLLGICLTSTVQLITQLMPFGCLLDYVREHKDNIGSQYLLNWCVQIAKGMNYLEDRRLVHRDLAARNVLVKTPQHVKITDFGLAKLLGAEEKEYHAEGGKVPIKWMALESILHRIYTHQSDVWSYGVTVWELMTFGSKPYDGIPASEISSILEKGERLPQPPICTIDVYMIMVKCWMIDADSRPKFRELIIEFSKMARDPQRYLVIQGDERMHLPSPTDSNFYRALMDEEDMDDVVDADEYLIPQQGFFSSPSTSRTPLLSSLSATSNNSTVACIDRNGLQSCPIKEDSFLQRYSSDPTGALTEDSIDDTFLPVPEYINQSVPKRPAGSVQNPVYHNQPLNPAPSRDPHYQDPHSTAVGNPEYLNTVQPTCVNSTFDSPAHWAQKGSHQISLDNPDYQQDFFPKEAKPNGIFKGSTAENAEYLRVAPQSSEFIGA

Tests used:
[1] = biological target: βBTK Y223 (Homo sapiens (Human), UniProt Q06187); assay: Intracellular βBTK Y223 phosphorylation HTRF in Ramos cells; details: read-out: βBTK Y223 IC50
[2] = biological target: wild-type EGFR kinase (Homo sapiens (Human), UniProt P00533); assay: Wild type EGFR kinase inhibition test (z-lyte); assay type: biochemical; details: read-out: EGFR WT IC50; 10 μM ATP
[3] = biological target: BTK WT (Homo sapiens (Human), UniProt Q06187); assay: Lantha screening kinase reaction, inhibition of BTK WT; details: read-out: BTK WT IC50

C=CC(=O)N1CCCC(Nc2nc(Nc3cccc(N4CCOCC4)c3)c3c(c2F)CNC3=O)C1 (stereo not drawn)
IC50 [1]: 12 nM | IC50 [2]: 3860 nM | IC50 [3]: 18 nM
